Measurements as given in PubChem BioAssay AID2554 (Johns Hopkins Ion Channel Center, 2010).
Only a part is listed here, and it is no random draw. Calls of active or inactive are those of the source.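 How the source made its calls: active means primary screen hit whose fluorescence ratio, in both repeats, exceeds the weak agonist control mean by 3 SD; inactive means the rest.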

system: TRPC4 (transient receptor potential cation channel C4 beta), mouse; assay: positive allosteric modulators of mouse TRPC4, confirmation, cell-based, second round, Fluo-4, HEK293 TRPC4beta/mu-opioid, 1 µM (AID 2554); details: DAMGO EC20, Fluo-4 calcium flux, at 1 µM; active compounds read high

| Compound | potentiation |
| --- | --- |
| CCN(CC)CCCOC(=O)C(O)(c1ccccc1)c1ccccc1 | active: 18% |
| CN(C)C1(CNC(=O)c2ccc(Cl)c(S(N)(=O)=O)c2)CCCCC1 | inactive |
| CN(C)CCOC(=O)C(O)(c1ccccc1)C1CCCC1 (stereo not drawn) | inactive |
